Common to all, as to settings: equilibrium dissociation constant
Assay [1] has as its target T1, MLKL (full length) (Homo sapiens, UniProt Q8NB16).
T1 construct: purchased DiscoverX (KINOMEscan service); host or cells: E. coli BL21-derived host (T7 phage) or HEK-293
T1 sequence (Q8NB16 1-471): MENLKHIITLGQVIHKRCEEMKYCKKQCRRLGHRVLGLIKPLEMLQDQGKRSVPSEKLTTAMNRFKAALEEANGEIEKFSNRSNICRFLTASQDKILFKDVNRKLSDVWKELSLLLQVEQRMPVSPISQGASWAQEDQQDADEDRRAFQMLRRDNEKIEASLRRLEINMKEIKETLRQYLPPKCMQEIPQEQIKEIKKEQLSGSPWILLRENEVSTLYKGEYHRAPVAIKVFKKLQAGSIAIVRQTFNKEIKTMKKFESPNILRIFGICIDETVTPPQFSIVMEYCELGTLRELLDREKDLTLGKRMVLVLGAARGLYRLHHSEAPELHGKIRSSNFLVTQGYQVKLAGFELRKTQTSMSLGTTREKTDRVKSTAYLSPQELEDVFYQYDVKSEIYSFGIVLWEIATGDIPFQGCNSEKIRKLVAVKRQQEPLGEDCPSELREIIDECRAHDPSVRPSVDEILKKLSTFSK
Description: KINOMEscan binding affinity assay, MLKL.

Chains of the proteins cited; added tags and fusions are not shown. Lines headed by an entry give the natural chain unless they say otherwise; changes in a name come on top.
UniProt Q9Y572: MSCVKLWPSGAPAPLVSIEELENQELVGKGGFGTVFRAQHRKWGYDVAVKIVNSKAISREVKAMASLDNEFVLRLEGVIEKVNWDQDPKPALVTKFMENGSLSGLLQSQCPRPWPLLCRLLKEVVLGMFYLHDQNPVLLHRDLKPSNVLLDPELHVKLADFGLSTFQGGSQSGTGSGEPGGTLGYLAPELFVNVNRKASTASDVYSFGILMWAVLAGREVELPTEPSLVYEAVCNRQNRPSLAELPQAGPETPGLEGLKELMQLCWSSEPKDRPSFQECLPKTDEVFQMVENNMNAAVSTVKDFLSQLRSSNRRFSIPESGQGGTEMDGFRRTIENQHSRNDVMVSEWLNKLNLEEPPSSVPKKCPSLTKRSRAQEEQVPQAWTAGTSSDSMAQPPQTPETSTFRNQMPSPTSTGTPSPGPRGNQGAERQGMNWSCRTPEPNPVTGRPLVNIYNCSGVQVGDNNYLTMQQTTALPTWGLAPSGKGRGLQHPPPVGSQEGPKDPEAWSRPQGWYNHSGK

Assay [2] concerns the target T2, RIP1 (Homo sapiens, UniProt Q13546).
T2 construct: purchased DiscoverX (KINOMEscan service); host or cells: E. coli BL21-derived host (T7 phage) or HEK-293
T2 sequence (Q13546 1-671): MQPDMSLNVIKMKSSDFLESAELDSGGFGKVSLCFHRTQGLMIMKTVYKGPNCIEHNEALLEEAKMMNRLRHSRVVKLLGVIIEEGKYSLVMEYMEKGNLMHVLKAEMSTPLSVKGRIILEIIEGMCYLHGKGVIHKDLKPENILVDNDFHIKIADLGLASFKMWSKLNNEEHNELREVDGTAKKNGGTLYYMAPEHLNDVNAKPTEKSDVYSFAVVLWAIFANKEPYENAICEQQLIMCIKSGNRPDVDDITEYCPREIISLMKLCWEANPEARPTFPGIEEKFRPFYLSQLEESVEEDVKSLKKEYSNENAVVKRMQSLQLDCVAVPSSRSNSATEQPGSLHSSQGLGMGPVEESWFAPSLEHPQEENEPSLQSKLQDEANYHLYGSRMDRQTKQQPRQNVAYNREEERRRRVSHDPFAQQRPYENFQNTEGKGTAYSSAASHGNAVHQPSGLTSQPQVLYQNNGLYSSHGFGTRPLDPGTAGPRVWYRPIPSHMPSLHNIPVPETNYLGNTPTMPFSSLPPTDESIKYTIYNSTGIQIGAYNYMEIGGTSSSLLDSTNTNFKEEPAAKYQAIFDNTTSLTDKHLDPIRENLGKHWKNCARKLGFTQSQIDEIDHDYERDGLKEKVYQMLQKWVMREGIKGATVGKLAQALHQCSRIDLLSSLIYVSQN
Description: KINOMEscan binding affinity assay, RIP1.

Assay [3] deals with T3, RIP3 (Homo sapiens, UniProt Q9Y572).
T3 construct: purchased DiscoverX (KINOMEscan service); host or cells: E. coli BL21-derived host (T7 phage) or HEK-293
Description: KINOMEscan binding affinity assay, RIP3.

SMILES strings stand for the structures.

Regarding `NC(=O)c1c(-c2ccc(NC(=O)CC3CCCCC3)cc2)n[nH]c1Nc1ccccn1` [Compound 8, 3-(4-(2-cyclohexyl-acetamido)phenyl)-5-(pyridin-2-ylamino)-1H-pyrazole-4-carboxamide], the Kd in assay [1] was 0.1 to 1 µM; in assay [2] it was over 1 µM.

In the case of `NC(=O)c1c(-c2ccc(NC(=O)N3CCc4cc(C(F)(F)F)ccc4C3)cc2)n[nH]c1Nc1cnccn1` [Compound 100, N-(4-(4-carbamoyl-5-(pyrazin-2-ylamino)-1H-pyrazol-3-yl)phenyl)-6-(trifluoromethyl)-3.4-dihydroisoquinoline-2(1H)-carboxamide], the Kd is under 0.1 µM in assay [1] and over 1 µM in assay [2].

For the compound `NC(=O)c1c(-c2ccc(NC(=O)c3cnn(-c4ccc(Cl)cc4)c3)cc2)n[nH]c1Nc1cccc(C(F)(F)F)n1` [Compound 36, N-(4-(4-carbamoyl-5-((6-(trifluoromethyl)pyridin-2-yl)amino)-1H-pyrazol-3-yl)phenyl)-1-(4-chlorophenyl)-1H-pyrazole-4-carboxamide], the Kd in assay [1] and in assay [2] was over 1 µM throughout.

Regarding `COc1cc(Nc2[nH]nc(-c3ccc(NC(=O)N4CCC(c5ccc(C(F)(F)F)cc5)C4)cc3)c2C(N)=O)ccn1` (stereo not shown) [Compound 70, 5-((2-methoxypyridin-4-yl)amino)-3-(4-(3-(4-(trifluoromethyl)phenyl)pyrrolidine-1-carboxamido)phenyl)-1H-pyrazole-4-carboxamide], the Kd in assay [1] was under 0.1 µM; in assay [2], over 1 µM.

Turning to `NC(=O)c1c(-c2ccc(Nc3c(N4CCOCC4)c(=O)c3=O)cc2)n[nH]c1Nc1ccccn1` [Compound 123, 3-(4-((2-morpholino-3,4-dioxocyclobut-1-en-1-yl)amino)phenyl)-5-(pyridin-2-ylamino)-1H-pyrazole-4-carboxamide], the Kd in assay [1] and in assay [2] was over 1 µM throughout.

Consider `NC(=O)c1c(-c2ccc(Nc3c(Nc4ccc(C(F)(F)F)cc4)c(=O)c3=O)cc2)n[nH]c1Nc1ccccn1` [Compound 125, 3-(4-((3,4-dioxo-2-((4-(trifluoromethyl)phenyl)amino)cyclobut-1-en-1-yl)amino)phenyl)-5-(pyridin-2-ylamino)-1H-pyrazole-4-carboxamide], for which the figures for the Kd in assay [1] and in assay [2] were 0.1 to 1 µM and over 1 µM, respectively.

Consider `COc1cc(Nc2[nH]nc(-c3ccc(NC(=O)N(C)CCc4ccccc4)cc3)c2C(N)=O)ccn1` [Compound 67, 5-((2-methoxypyridin-4-yl)amino)-3-(4-(3-methyl-3-phenethylureido)phenyl)-1H-pyrazole-4-carboxamide], for which the Kd in assay [1] is under 0.1 µM; in assay [2] it was over 1 µM.

With `NC(=O)c1c(-c2ccc(NC(=O)Cc3cccnc3)cc2)n[nH]c1Nc1ccccn1` [Compound 11, 5-(pyridin-2-ylamino)-3-(4-(2-(pyridin-3-yl)acetamido)phenyl)-1H-pyrazole-4-carboxamide], the Kd in assay [1] and in assay [2] was over 1 µM throughout.

As for `NC(=O)c1c(-c2ccc(NC(=O)C(c3ccccc3)c3ccccc3)cc2)n[nH]c1Nc1ccccn1` [Compound 5, 3-(4-(2,2-diphenyl-acetamido)phenyl)-5-(pyridin-2-ylamino)-1H-pyrazole-4-carboxamide], the Kd in assay [3] and in assay [2] was over 1 µM throughout.

With `NC(=O)c1c(-c2ccc(NC(=O)Cc3ccccc3)cc2)n[nH]c1Nc1cnccn1` [Compound 29, 3-(4-(2-phenylacetamido)phenyl)-5-(pyrazin-2-ylamino)-1H-pyrazole-4-carboxamide], the Kd in assay [3] and in assay [2] was over 1 µM in each case.

Regarding `COCCOc1cc(Nc2[nH]nc(-c3ccc(NC(C)=O)cc3)c2C(N)=O)ccn1` [Compound 16, 3-(4-acetamidophenyl)-5-((2-(2-methoxyethoxy)pyridin-4-yl)amino)-1H-pyrazole-4-carboxamide], the figures for the Kd in assay [1] and in assay [2] were 0.1 to 1 µM and over 1 µM, respectively.

As to `NC(=O)c1c(-c2ccc(NC(=O)N3CCCC(c4ccc(F)cc4)C3)cc2)n[nH]c1Nc1cnccn1` (stereo not shown) [Compound 94, N-(4-(4-carbamoyl-5-(pyrazin-2-ylamino)-1H-pyrazol-3-yl)phenyl)-3-(4-fluorophenyl)piperidine-1-carboxamide], the Kd in assay [1] and in assay [2] was under 0.1 µM each time.

For `CNc1c(Nc2ccc(-c3n[nH]c(Nc4ccccn4)c3C(N)=O)cc2)c(=O)c1=O` [Compound 118, 3-(4-((2-(methylamino)-3,4-dioxocyclobut-1-en-1-yl)amino)phenyl)-5-(pyridin-2-ylamino)-1H-pyrazole-4-carboxamide], the Kd in assay [1] and in assay [2] was over 1 µM in each case.

`COc1cc(Nc2[nH]nc(-c3ccc(NC(=O)N4CCc5ccccc5C4)cc3)c2C(N)=O)ccn1` [Compound 51, N-(4-(4-carbamoyl-5-((2-methoxypyridin-4-yl)amino)-1H-pyrazol-3-yl)phenyl)-3,4-dihydroisoquinoline-2(1H)-carboxamide]: the Kd is under 0.1 µM in assay [1] and over 1 µM in assay [2].

Turning to `NC(=O)c1c(-c2ccc(NC(=O)N3CCCC(c4ccc(Cl)cc4)C3)cc2)n[nH]c1Nc1cnccn1` (stereo not shown) [Compound 92, N-(4-(4-carbamoyl-5-(pyrazin-2-ylamino)-1H-pyrazol-3-yl)phenyl)-3-(4-chlorophenyl)piperidine-1-carboxamide], the Kd in assay [3] was over 1 µM; in assay [2], 0.1 to 1 µM.

As for `NC(=O)c1c(-c2ccc(NC(=O)N3CCCC(c4ccccc4)C3)cc2)n[nH]c1Nc1cnccn1` (stereo not shown) [Compound 89, N-(4-(4-carbamoyl-5-(pyrazin-2-ylamino)-1H-pyrazol-3-yl)phenyl)-3-phenylpiperidine-1-carboxamide], the Kd in assay [1] and in assay [2] was under 0.1 µM each time.

On to `COc1cc(Nc2[nH]nc(-c3ccc(NC(=O)N4CCC(C)(c5ccccc5)C4)cc3)c2C(N)=O)ccn1` (stereo not shown) [Compound 72, 5-((2-methoxypyridin-4-yl)amino)-3-(4-(3-methyl-3-phenylpyrrolidine-1-carboxamido)phenyl)-1H-pyrazole-4-carboxamide], for which the Kd in assay [3] and in assay [2] was over 1 µM in each case.

In the case of `COc1cc(Nc2[nH]nc(-c3ccc(NC(=O)N4CCC[C@@H]4c4ccccc4)cc3)c2C(N)=O)ccn1` [Compound 104, (R)-5-((2-methoxypyridin-4-yl)amino)-3-(4-(2-phenyl-pyrrolidine-1-carboxamido)phenyl)-1H-pyrazole-4-carboxamide], the Kd was over 1 µM in assay [3] and 0.1 to 1 µM in assay [2].

With `NC(=O)c1c(-c2ccc(NC(=O)Cc3ccncc3)cc2)n[nH]c1Nc1ccccn1` [Compound 12, 5-(pyridin-2-ylamino)-3-(4-(pyridin-4-(2-yl)acetamido)phenyl)-1H-pyrazole-4-carboxamide], the Kd in assay [3] and in assay [2] was over 1 µM each time.

Consider `COc1cc(Nc2[nH]nc(-c3ccc(NC(=O)N4CCC[C@H](c5ccccc5)C4)cc3)c2C(N)=O)ccn1` [Compound 61, (R)-N-(4-(4-carbamoyl-5-((2-methoxypyridin-4-yl)amino)-1H-pyrazol-3-yl)phenyl)-3-phenylpiperidine-1-carboxamide], for which the Kd in assay [1] and in assay [2] was under 0.1 µM each time.

`NC(=O)c1c(-c2ccc(NC(=O)Cc3ccccn3)cc2)n[nH]c1Nc1ccccn1` [Compound 10, 3-(4-(2-(pyridin-2-yl)acetamido)phenyl)-5-(pyridin-2-ylamino)-1H-pyrazole-4-carboxamide]: the Kd in assay [3] and in assay [2] was over 1 µM throughout.

With `NC(=O)c1c(-c2ccc(Nc3c(NCc4ccccc4)c(=O)c3=O)cc2)n[nH]c1Nc1ccccn1` [Compound 120, 3-(4-((2-(benzylamino)-3,4-dioxocyclobut-1-en-1-yl)amino)phenyl)-5-(pyridin-2-ylamino)-1H-pyrazole-4-carboxamide], the dissociation constant (Kd) in assay [3] and in assay [2] was over 1 µM throughout.

For the compound `COCCOc1cc(Nc2[nH]nc(-c3ccc(NC(=O)CN)cc3)c2C(N)=O)ccn1` [Compound 17, 3-(4-(2-aminoacetamido)phenyl)-5-((2-(2-methoxyethoxy)pyridin-4-yl)amino)-1H-pyrazole-4-carboxamide], the Kd in assay [3] and in assay [2] was over 1 µM in each case.

(Values after US20230227428A1 (Anaxis Pharma Pty Ltd, priority 2020, published 2023).)
